This note sets out measurements from BindingDB's records for doi:10.1007/bf00168557 (Boehringer Ingelheim Italia, 1995).

Sequences of proteins named here, by UniProt entry; tags and fusion partners are left off.
UniProt P18090, whole entry: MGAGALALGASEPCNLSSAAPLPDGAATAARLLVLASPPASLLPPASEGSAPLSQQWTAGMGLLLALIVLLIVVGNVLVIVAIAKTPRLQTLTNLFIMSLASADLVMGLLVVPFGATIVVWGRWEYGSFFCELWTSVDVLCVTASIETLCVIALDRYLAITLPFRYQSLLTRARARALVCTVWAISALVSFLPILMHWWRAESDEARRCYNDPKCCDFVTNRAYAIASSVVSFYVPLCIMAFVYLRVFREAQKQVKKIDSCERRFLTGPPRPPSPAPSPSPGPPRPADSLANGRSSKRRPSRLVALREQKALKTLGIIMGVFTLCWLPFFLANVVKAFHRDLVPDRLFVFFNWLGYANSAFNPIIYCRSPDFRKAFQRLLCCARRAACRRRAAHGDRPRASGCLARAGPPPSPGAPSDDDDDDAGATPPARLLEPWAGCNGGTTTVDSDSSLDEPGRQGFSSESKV
UniProt P31390, whole entry: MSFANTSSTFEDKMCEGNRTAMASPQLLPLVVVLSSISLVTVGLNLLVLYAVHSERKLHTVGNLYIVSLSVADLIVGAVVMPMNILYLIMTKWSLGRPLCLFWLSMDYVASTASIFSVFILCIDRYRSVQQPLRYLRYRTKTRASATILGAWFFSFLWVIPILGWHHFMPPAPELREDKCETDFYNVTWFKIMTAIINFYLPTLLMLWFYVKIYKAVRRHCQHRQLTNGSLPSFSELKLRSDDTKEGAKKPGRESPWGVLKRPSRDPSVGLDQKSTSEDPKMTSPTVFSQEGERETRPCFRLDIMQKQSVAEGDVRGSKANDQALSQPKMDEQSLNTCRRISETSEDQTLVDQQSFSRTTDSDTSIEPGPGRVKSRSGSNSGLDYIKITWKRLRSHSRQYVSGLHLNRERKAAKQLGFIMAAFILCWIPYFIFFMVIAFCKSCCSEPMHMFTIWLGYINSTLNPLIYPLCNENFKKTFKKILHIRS
UniProt P19327, whole entry: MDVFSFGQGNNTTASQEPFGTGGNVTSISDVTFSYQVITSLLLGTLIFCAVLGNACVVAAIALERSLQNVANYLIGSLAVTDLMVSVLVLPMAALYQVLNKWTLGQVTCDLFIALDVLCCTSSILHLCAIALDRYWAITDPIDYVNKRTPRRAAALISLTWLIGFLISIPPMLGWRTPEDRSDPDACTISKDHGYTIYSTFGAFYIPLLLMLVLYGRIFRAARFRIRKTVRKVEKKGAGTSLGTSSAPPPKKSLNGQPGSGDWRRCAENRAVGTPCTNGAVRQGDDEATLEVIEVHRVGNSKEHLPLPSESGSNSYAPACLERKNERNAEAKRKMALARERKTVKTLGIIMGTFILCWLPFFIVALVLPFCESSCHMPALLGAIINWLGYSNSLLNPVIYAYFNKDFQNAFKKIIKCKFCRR

The target of experiment [1] is Beta-1 adrenergic receptor (Rattus norvegicus, UniProt P18090).
Another experiment addresses Histamine H1 receptor (Rattus norvegicus, UniProt P31390).
Experiment [2] addresses 5-hydroxytryptamine receptor 1A (Rattus norvegicus, UniProt P19327).

As to `C=CCc1ccccc1OC[C@@H](O)CNC(C)C` [ALPRENOLOL,(-)], the affinity in experiment [1], expressed as Ki, was 1.1 nM.
Consider `CC(CN1c2ccccc2Sc2ccccc21)N(C)C` (stereo not drawn) [N,N,alpha-trimethyl-10H-phenothiazine-10-ethanamine], for which the Ki (in general, the equilibrium dissociation constant of an inhibitor or competing ligand from its target) on Histamine H1 receptor worked out at 4 nM.
`NCCc1c[nH]c2ccc(O)cc12` [[3H]-5-HT] showed a Ki in experiment [2] of 4.2 nM. In other words, the single-digit nanomolar range.
